Amino acid sequences for entries named in this document (tags omitted).
UniProt P14416, whole entry: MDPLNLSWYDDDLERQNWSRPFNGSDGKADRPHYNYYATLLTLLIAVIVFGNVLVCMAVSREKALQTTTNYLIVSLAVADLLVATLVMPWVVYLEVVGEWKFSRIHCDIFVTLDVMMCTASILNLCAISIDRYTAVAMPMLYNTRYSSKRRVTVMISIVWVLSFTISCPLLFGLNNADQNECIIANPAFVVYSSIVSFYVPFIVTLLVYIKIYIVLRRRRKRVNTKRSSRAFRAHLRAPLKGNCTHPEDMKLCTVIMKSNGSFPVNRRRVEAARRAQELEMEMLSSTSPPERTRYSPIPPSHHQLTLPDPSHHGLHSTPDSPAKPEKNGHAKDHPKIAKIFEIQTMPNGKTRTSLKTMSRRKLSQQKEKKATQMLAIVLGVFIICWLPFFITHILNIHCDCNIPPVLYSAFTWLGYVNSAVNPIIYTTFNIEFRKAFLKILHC
UniProt Q01959, whole entry: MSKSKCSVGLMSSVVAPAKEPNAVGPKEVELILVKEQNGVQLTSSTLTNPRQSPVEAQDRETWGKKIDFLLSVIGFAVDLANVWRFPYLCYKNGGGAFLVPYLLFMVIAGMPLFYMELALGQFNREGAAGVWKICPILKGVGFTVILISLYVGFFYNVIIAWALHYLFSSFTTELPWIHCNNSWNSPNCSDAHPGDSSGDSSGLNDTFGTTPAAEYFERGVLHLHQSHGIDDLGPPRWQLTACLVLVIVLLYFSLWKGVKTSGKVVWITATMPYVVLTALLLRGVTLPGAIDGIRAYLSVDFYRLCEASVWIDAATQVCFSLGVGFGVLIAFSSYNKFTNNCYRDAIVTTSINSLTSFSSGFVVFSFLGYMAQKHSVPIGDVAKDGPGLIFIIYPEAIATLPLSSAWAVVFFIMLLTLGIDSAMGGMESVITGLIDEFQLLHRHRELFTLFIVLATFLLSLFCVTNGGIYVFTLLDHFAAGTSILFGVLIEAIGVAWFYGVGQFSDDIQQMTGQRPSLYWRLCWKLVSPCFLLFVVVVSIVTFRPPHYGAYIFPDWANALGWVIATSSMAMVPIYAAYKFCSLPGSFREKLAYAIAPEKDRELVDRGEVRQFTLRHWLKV

According to patent US20210024498A1, “TETRAHYDROPYRROLE COMPOUND, PREPARATION METHOD THEREFOR, PHARMACEUTICAL COMPOSITION CONTAINING SAME, AND USE THEREOF” (MEDICONNS (SHANGHAI) BIOPHARMACEUTICAL CO., LTD, priority 2017, published 2021):

Key:
D2 receptor [1] = biological target: T1, D2 receptor (Homo sapiens, UniProt P14416); assay: D2 receptor function assay, calcium mobilization (FLIPR); format: cell-based; details: read-out: Calcium mobilization assay IC50, HEK293, antagonism of D2 receptor
D2 receptor [2] = biological target: T1, D2 receptor; assay: D2 receptor affinity assay (radioligand competition, 3H-7-OH-DPAT); format: binding; details: read-out: D2 affinity assay IC50; cloned D2 receptor expressed in HEK293 cell line; 3H-7-OH-DPAT 1 nM
DAT = DAT (Homo sapiens, UniProt Q01959); assay: DAT transporter assay (neurotransmitter transporter absorption assay); format: cell-based; details: read-out: Neurotransmitter transporter (DAT) absorption assay IC50

Compound	IC50 (D2 receptor [1])	IC50 (D2 receptor [2])	IC50 (DAT)
Oc1cccc(C2CCN(Cc3c[nH]c4ccccc34)C2)c1 (single isomer, unassigned) [MDC-161502-010]	144 nM	2.35 nM	218 nM
Oc1cccc(C2CCN(Cc3c[nH]c4ccccc34)C2)c1 (single isomer, unassigned) [MDC-161502-011]	2 nM	3.46 nM	14.7 nM
